How the values were obtained:
[1] = molecular target: T1, 5-HT2C (h) (Homo sapiens, UniProt P28335); settings: read-out: Binding 5-HT2C Ki; antagonist radioligand; literature, racemic; cited from earlier work
T1 construct: expressed in transfected cells; host or cells: HEK-293 cells

Protein sequences, listed by entry. Tags and fused reporters are not part of them. Residues count along the entry.
UniProt P28335, 33-458: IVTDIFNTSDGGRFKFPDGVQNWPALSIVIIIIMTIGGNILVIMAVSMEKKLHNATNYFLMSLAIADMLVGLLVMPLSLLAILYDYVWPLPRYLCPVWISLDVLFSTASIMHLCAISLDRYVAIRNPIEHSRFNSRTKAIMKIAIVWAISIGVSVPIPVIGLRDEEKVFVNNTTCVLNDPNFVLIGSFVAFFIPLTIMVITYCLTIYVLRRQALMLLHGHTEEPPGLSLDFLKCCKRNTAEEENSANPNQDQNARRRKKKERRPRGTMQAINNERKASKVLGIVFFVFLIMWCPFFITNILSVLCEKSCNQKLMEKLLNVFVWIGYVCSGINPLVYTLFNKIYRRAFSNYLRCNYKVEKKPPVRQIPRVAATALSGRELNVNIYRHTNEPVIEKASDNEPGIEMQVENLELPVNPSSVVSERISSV
UniProt P23975, whole entry: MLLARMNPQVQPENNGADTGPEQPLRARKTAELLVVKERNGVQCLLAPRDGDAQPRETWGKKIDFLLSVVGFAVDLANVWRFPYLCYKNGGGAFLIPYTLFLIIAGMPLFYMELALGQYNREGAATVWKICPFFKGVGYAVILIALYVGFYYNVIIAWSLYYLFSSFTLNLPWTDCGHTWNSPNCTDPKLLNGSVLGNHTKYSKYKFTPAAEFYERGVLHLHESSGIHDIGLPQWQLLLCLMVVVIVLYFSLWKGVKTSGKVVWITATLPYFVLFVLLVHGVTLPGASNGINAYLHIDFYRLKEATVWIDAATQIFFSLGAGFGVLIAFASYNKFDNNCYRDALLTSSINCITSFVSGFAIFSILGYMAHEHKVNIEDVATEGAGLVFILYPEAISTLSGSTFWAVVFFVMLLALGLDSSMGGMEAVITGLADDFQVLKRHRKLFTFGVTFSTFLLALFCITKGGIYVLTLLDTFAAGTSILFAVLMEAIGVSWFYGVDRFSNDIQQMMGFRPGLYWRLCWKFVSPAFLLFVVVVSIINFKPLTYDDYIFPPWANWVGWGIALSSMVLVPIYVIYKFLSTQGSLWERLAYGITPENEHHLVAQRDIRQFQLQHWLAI

[2] = molecular target: T1, 5-HT2C (h); settings: literature, single enantiomers; read-out: Function 5-HT2C EC50; cited from earlier work
[3] = molecular target: T2, norepinephrine transporter (h) (Homo sapiens, UniProt P23975); assay: norepinephrine transporter (h) binding, [3H]nisoxetine; settings: Hill coefficient; reference compound result
T2 construct: expressed in transfected cells; host or cells: CHO cells

| Structure (SMILES) | EC50 [2] [µM] | also measured |
| --- | --- | --- |
| CNC(C)Cc1ccc2c(c1)OCO2 (stereo not shown) [MDMA, 3,4-methylenedioxymethamphetamine] |  | Ki [1]: > 10 µM |
| CN[C@H](C)Cc1ccc2c(c1)OCO2 [R-MDMA] | 5.4 |  |
| CN[C@@H](C)Cc1ccc2c(c1)OCO2 [S-MDMA] | 2.6 |  |
| CNCCCC1c2ccccc2C=Cc2ccccc21 [protriptyline, reference compound] |  | nH [3]: 1.1 |

From patent US20250145566A1, “PHENETHYLAMINE DERIVATIVES, COMPOSITIONS, AND METHODS OF USE” (Cybin IRL Limited, priority 2022, published 2025)
